In the test the target is Cannabinoid receptor 1 (Homo sapiens, UniProt P21554). In words: Binding affinity at the CB1 receptor.

By UniProt entry, the sequences of proteins in these tests, tags left out.
UniProt P21554, whole entry: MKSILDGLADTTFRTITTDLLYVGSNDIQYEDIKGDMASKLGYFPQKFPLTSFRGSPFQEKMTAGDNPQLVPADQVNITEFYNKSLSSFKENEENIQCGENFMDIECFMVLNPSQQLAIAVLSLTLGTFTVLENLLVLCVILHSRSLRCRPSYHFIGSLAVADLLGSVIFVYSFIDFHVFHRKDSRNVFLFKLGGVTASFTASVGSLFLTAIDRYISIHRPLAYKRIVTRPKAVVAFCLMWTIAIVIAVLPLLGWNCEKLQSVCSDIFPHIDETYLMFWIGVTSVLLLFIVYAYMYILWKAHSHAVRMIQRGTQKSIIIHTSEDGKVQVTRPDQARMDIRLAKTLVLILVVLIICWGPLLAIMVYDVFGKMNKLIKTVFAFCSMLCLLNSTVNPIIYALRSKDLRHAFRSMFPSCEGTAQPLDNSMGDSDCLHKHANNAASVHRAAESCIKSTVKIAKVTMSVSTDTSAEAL

`CC(=O)Nc1c(C(C)=O)c(=O)n(C)c2nc(-c3ccc(Cl)cc3Cl)c(-c3ccc(Cl)cc3)cc12` [NAPHTHYRIDINONE]: the IC50 worked out at 7.5 nM.

Values taken from ChEMBL document CHEMBL1149424, “Synthesis of functionalized 1,8-naphthyridinones and their evaluation as novel, orally active CB1 receptor inverse agonists” (Bioorg Med Chem Lett, 2006).
